Measured values reported in PubChem BioAssay (NCI).
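Each compound was tested at five concentrations against cells in 96-well plates for 48 hours. GI50 is the concentration that inhibits growth by half. TGI is the concentration that stops growth completely.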

Columns and labels:
Test in all cases: growth of human tumour cells (NCI), 48 h
786-0 renal = system: 786-0 renal
A498 renal = system: A498 renal
A549 NSCLC = system: A549 NSCLC
ACHN renal = system: ACHN renal
BT-549 breast = system: BT-549 breast
CAKI-1 renal = system: CAKI-1 renal
CCRF-CEM leukemia = system: CCRF-CEM leukemia
COLO 205 colon = system: COLO 205 colon
DU-145 prostate = system: DU-145 prostate
EKVX NSCLC = system: EKVX NSCLC
HCC-2998 colon = system: HCC-2998 colon
HCT-116 colon = system: HCT-116 colon
HCT-15 colon = system: HCT-15 colon
HL-60(TB) leukemia = system: HL-60(TB) leukemia
HOP-62 NSCLC = system: HOP-62 NSCLC
HOP-92 NSCLC = system: HOP-92 NSCLC
HS 578T breast = system: HS 578T breast
HT29 colon = system: HT29 colon
IGROV1 ovarian = system: IGROV1 ovarian
K-562 leukemia = system: K-562 leukemia
KM12 colon = system: KM12 colon
LOX IMVI melanoma = system: LOX IMVI melanoma
M14 melanoma = system: M14 melanoma
MALME-3M melanoma = system: MALME-3M melanoma
MCF7 breast = system: MCF7 breast
MDA-MB-231 breast = system: MDA-MB-231 breast
MDA-MB-435 = system: MDA-MB-435
MDA-N = system: MDA-N
MOLT-4 leukemia = system: MOLT-4 leukemia
NCI-H226 lung = system: NCI-H226 lung
NCI-H23 lung = system: NCI-H23 lung
NCI-H322M lung = system: NCI-H322M lung
NCI-H460 lung = system: NCI-H460 lung
NCI-H522 lung = system: NCI-H522 lung
NCI/ADR-RES ovarian = system: NCI/ADR-RES ovarian
OVCAR-3 ovarian = system: OVCAR-3 ovarian
OVCAR-4 ovarian = system: OVCAR-4 ovarian
OVCAR-5 ovarian = system: OVCAR-5 ovarian
OVCAR-8 ovarian = system: OVCAR-8 ovarian
PC-3 prostate = system: PC-3 prostate
RPMI-8226 leukemia = system: RPMI-8226 leukemia
RXF 393 renal = system: RXF 393 renal
SF-268 CNS = system: SF-268 CNS
SF-295 CNS = system: SF-295 CNS
SK-MEL-2 melanoma = system: SK-MEL-2 melanoma
SK-MEL-28 melanoma = system: SK-MEL-28 melanoma
SK-MEL-5 melanoma = system: SK-MEL-5 melanoma
SK-OV-3 ovarian = system: SK-OV-3 ovarian
SN12C renal = system: SN12C renal
SNB-19 CNS = system: SNB-19 CNS
SNB-75 CNS = system: SNB-75 CNS
SR leukemia = system: SR leukemia
SW-620 colon = system: SW-620 colon
T-47D breast = system: T-47D breast
TK-10 renal = system: TK-10 renal
U251 CNS = system: U251 CNS
UACC-257 melanoma = system: UACC-257 melanoma
UACC-62 melanoma = system: UACC-62 melanoma
UO-31 renal = system: UO-31 renal

Question: What does the source list for `O=[N+]([O-])C(F)(COCC(O)CO)[N+](=O)[O-]` (stereo not drawn)?
Answer: GI50 (786-0 renal): 3.3 µM; TGI (786-0 renal): 10.5 µM; GI50 (A498 renal): 21 µM; TGI (A498 renal): 48.3 µM; GI50 (A549 NSCLC): 19.3 µM; TGI (A549 NSCLC): 39.2 µM; GI50 (ACHN renal): 14 µM; TGI (ACHN renal): 38.7 µM; GI50 (BT-549 breast): 5.67 µM; TGI (BT-549 breast): 22.3 µM; GI50 (CAKI-1 renal): 6.51 µM; TGI (CAKI-1 renal): 13.8 µM; GI50 (CCRF-CEM leukemia): 3.1 µM; TGI (CCRF-CEM leukemia): 20.1 µM; GI50 (COLO 205 colon): 9.61 µM; TGI (COLO 205 colon): 27 µM; GI50 (DU-145 prostate): 16.6 µM; TGI (DU-145 prostate): 32 µM; GI50 (EKVX NSCLC): 18.1 µM; TGI (EKVX NSCLC): 42.4 µM; GI50 (HCC-2998 colon): 15.3 µM; TGI (HCC-2998 colon): 39.5 µM; GI50 (HCT-116 colon): 7.33 µM; TGI (HCT-116 colon): 24.2 µM; GI50 (HCT-15 colon): 5.63 µM; TGI (HCT-15 colon): 39.5 µM; GI50 (HL-60(TB) leukemia): 2.48 µM; TGI (HL-60(TB) leukemia): 7.83 µM; GI50 (HOP-62 NSCLC): 21.6 µM; TGI (HOP-62 NSCLC): 43.9 µM; GI50 (HOP-92 NSCLC): 11.9 µM; TGI (HOP-92 NSCLC): 27.6 µM; GI50 (HS 578T breast): 32.7 µM; TGI (HS 578T breast): 73.7 µM; GI50 (HT29 colon): 12.3 µM; TGI (HT29 colon): 47.4 µM; GI50 (IGROV1 ovarian): 10.8 µM; TGI (IGROV1 ovarian): 25.6 µM; GI50 (K-562 leukemia): 1.97 µM; TGI (K-562 leukemia): 19.2 µM; GI50 (KM12 colon): 15.2 µM; TGI (KM12 colon): 36.1 µM; GI50 (LOX IMVI melanoma): 10.7 µM; TGI (LOX IMVI melanoma): 47.8 µM; GI50 (M14 melanoma): 6.54 µM; TGI (M14 melanoma): 26.9 µM; GI50 (MALME-3M melanoma): 5.55 µM; TGI (MALME-3M melanoma): 19.8 µM; GI50 (MCF7 breast): 11 µM; TGI (MCF7 breast): 45.3 µM; GI50 (MDA-MB-231 breast): 18.9 µM; TGI (MDA-MB-231 breast): 38.9 µM; GI50 (MDA-MB-435): 2.79 µM; TGI (MDA-MB-435): 11.4 µM; GI50 (MDA-N): 2.92 µM; TGI (MDA-N): 8.66 µM; GI50 (MOLT-4 leukemia): 6.27 µM; TGI (MOLT-4 leukemia): 35.5 µM; GI50 (NCI-H226 lung): 25.9 µM; TGI (NCI-H226 lung): 58.2 µM; GI50 (NCI-H23 lung): 23.5 µM; TGI (NCI-H23 lung): 67.2 µM; GI50 (NCI-H322M lung): 20.3 µM; TGI (NCI-H322M lung): 40 µM; GI50 (NCI-H460 lung): 16.2 µM; TGI (NCI-H460 lung): 31.7 µM; GI50 (NCI-H522 lung): 3.56 µM; TGI (NCI-H522 lung): 21.5 µM; GI50 (NCI/ADR-RES ovarian): 21.2 µM; TGI (NCI/ADR-RES ovarian): 52.3 µM; GI50 (OVCAR-3 ovarian): 12.8 µM; TGI (OVCAR-3 ovarian): 30.8 µM; GI50 (OVCAR-4 ovarian): 21.8 µM; TGI (OVCAR-4 ovarian): 61.7 µM; GI50 (OVCAR-5 ovarian): 22.8 µM; TGI (OVCAR-5 ovarian): 44.9 µM; GI50 (OVCAR-8 ovarian): 23.8 µM; TGI (OVCAR-8 ovarian): 55.1 µM; GI50 (PC-3 prostate): 16.8 µM; TGI (PC-3 prostate): 32.5 µM; GI50 (RPMI-8226 leukemia): 2.69 µM; TGI (RPMI-8226 leukemia): 12.4 µM; GI50 (RXF 393 renal): 30.6 µM; TGI (RXF 393 renal): > 100 µM; GI50 (SF-268 CNS): 25.2 µM; TGI (SF-268 CNS): 55.8 µM; GI50 (SF-295 CNS): 20.1 µM; TGI (SF-295 CNS): 42.7 µM; GI50 (SK-MEL-2 melanoma): 19.4 µM; TGI (SK-MEL-2 melanoma): 39.1 µM; GI50 (SK-MEL-28 melanoma): 19.7 µM; TGI (SK-MEL-28 melanoma): 55.6 µM; GI50 (SK-MEL-5 melanoma): 11 µM; TGI (SK-MEL-5 melanoma): 26 µM; GI50 (SK-OV-3 ovarian): 22.6 µM; TGI (SK-OV-3 ovarian): 49.3 µM; GI50 (SN12C renal): 16.3 µM; TGI (SN12C renal): 32.1 µM; GI50 (SNB-19 CNS): 15.5 µM; TGI (SNB-19 CNS): 29.6 µM; GI50 (SNB-75 CNS): 22 µM; TGI (SNB-75 CNS): 52.1 µM; GI50 (SR leukemia): 2.33 µM; TGI (SR leukemia): 8.99 µM; GI50 (SW-620 colon): 3.79 µM; TGI (SW-620 colon): 28.8 µM; GI50 (T-47D breast): 10.3 µM; TGI (T-47D breast): 39.5 µM; GI50 (TK-10 renal): 12.4 µM; TGI (TK-10 renal): 48.9 µM; GI50 (U251 CNS): 20.3 µM; TGI (U251 CNS): 44.3 µM; GI50 (UACC-257 melanoma): 14.4 µM; TGI (UACC-257 melanoma): 29.1 µM; GI50 (UACC-62 melanoma): 8.53 µM; TGI (UACC-62 melanoma): 23.8 µM; GI50 (UO-31 renal): 17.6 µM; TGI (UO-31 renal): 33.7 µM
